In US8802861B2, “Thiazole derivatives and use thereof” (Merck Serono SA, priority 2004, dated 2014):
pIC50: −log10 of the molar value.

Amino acid sequences for entries named in this document (tags omitted). A change or cut given only in a name is not applied to a line headed by its entry.
UniProt P48736: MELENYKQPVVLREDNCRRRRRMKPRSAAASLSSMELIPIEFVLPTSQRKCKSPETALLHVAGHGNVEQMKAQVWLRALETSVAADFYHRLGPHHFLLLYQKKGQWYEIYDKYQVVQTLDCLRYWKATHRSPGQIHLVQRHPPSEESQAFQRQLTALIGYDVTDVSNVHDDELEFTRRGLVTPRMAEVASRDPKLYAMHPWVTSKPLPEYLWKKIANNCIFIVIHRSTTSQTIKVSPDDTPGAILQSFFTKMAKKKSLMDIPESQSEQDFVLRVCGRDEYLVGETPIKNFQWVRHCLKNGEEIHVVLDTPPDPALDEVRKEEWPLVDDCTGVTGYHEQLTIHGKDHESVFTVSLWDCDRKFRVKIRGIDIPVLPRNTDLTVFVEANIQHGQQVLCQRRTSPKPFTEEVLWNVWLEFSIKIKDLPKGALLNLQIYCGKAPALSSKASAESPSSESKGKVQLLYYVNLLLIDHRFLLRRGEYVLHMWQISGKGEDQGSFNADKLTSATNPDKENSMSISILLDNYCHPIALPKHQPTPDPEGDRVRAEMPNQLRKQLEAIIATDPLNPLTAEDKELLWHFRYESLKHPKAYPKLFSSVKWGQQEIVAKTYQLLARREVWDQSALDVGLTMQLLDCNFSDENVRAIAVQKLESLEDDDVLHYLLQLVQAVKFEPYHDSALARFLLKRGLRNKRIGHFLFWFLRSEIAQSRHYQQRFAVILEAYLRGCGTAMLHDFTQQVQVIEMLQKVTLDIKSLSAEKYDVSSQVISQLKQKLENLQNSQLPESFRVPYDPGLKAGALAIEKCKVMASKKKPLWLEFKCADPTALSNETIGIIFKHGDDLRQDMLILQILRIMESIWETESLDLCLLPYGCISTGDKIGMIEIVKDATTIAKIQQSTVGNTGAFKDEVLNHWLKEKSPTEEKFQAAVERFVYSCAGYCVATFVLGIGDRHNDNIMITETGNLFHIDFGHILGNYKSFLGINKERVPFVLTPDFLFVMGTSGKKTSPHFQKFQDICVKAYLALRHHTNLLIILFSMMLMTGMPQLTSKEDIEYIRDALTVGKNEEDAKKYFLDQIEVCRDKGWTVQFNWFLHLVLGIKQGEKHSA

Molecular target: PI3Kγ (Homo sapiens (Human), UniProt P48736)
Test: High Throughput PI3K Lipid Kinase Assay (scintillation proximity assay)
Format: biochemical
Details: Human recombinant GST-PI3Kγ, SPA
Excerpt: a) High Throughput PI3K Lipid Kinase Assay (Binding Assay): The efficacy of compounds of the invention in inhibiting the PI3K induced-lipid phosphorylation may be tested in the following binding assay. The assay combines the scintillation proximity assay technology (SPA, Amersham) with the capacity of neomycin (a polycationic antibiotic) to bind phospholipids with high affinity and specificity. The Scintillation Proximity Assay is based on the properties of weakly emitting isotopes (such as ^3H, ^125I, ^33P). Coating SPA beads with neomycin allows the detection of phosphorylated lipid substrates after incubation with recombinant PI3K and radioactive ATP in the same well, by capturing the radioactive phospholipids to the SPA beads through their specific binding to neomycin. […] After incubation at room temperature for 180 minutes, with gentle agitation, the reaction is stopped by addition of 60 μl of a solution containing 100 μg of neomycin-coated PVT SPA beads in PBS containing ATP 10 mM and EDTA 5 mM. The assay is further incubated at room temperature for 60 minutes with gentle agitation to allow binding of phospholipids to neomycin-SPA beads. After precipitation of the neomycin-coated PVT SPA beads for 5 minutes at 1500×g, radioactive PtdIns(3)P is quantified by scintillation counting in a Wallac MicroBetaTM plate counter. […]

- pIC50: 8.00
Structure (SMILES): CC(=O)Nc1nc(C)c(-c2csc(Nc3cccc(C(=O)O)c3)n2)s1 [Example 1]
